In ChEMBL document CHEMBL3297707, “Dual protonophore-chitinase inhibitors dramatically affect O. volvulus molting” (J Med Chem, 2014):
Activity calls are given as the source filed them. No cut-off for these calls is given here.

Test system: Plasmodium falciparum
Assay: Inhibition of Plasmodium falciparum chitinase using 20 uM 4-methylumbelliferyl-N,N',N''-beta-chitotrioside as substrate at 10 uM after 10 mins by microplate reader analysis

For O=C(Nc1ccc(Oc2ccc(Cl)cc2)cc1)c1cc(I)cc(I)c1O, the inhibition was “inactive”.
